The term IC50 denotes the midpoint of a concentration-inhibition curve.

Protein sequences, listed by entry. Tags and fused reporters are not part of them. Residues count along the entry.
UniProt P16581, 22-610 limits assumed: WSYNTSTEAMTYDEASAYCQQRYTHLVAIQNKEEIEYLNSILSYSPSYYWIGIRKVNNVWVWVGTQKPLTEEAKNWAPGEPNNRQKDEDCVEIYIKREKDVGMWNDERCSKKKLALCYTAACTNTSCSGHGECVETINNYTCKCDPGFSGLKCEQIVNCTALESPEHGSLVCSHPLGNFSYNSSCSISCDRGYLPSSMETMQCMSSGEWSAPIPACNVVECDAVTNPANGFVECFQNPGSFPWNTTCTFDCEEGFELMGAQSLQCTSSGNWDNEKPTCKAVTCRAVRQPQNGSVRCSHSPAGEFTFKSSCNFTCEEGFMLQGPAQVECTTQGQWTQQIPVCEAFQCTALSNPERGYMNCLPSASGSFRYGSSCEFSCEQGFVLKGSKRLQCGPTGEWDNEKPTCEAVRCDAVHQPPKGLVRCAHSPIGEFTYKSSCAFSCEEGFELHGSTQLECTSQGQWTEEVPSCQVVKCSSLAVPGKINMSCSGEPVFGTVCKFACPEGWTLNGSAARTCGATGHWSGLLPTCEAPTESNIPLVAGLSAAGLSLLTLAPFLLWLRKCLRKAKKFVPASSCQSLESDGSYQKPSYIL

This test concerns the target E-selectin (Homo sapiens, UniProt P16581). Description: E-Selectin Activity - competitive binding assay (sLe^a polyacrylamide conjugate vs immobilized E-selectin/Ig chimera). The following applies: concentration required to inhibit binding of sLe^a conjugate to immobilized E-selectin/Ig chimera by 50%; tested form: Na salt.

Turning to `CC[C@H]1C[C@@H](C(=O)NCCNC(=O)CCOCCOCCNC(=O)[C@@H](OS(=O)(=O)O)[C@H](COS(=O)(=O)O)OS(=O)(=O)O)C[C@@H](O[C@@H]2O[C@H](CO)[C@H](O)[C@H](O[C@@H](CC3CCCCC3)C(=O)O)[C@H]2NC(C)=O)[C@@H]1O[C@@H]1O[C@@H](C)[C@@H](O)[C@@H](O)[C@@H]1O`, the IC50 is 136 nM.
As to `CC[C@H]1C[C@@H](C(=O)NCCNC(=O)CCOCCOCCNC(=O)[C@@H](OS(=O)(=O)O)[C@@H](COS(=O)(=O)O)OS(=O)(=O)O)C[C@@H](O[C@@H]2O[C@H](CO)[C@H](O)[C@H](O[C@@H](CC3CCCCC3)C(=O)O)[C@H]2NC(C)=O)[C@@H]1O[C@@H]1O[C@@H](C)[C@@H](O)[C@@H](O)[C@@H]1O`, the IC50 is 106 nM.
